Measurements from US12344644B2, “Amelioration and treatment of infarction damage with a polypeptide segement of BNIP3” (priority 2021, dated 2025).

Tested on: wild-type mice
Assay: DOX treatment in vivo: serial echocardiography
Details: T1 (16 days) and T2 (42 days); DOX alone or with concurrent PepB

COc1cccc2c1C(=O)c1c(O)c3c(c(O)c1C2=O)C[C@@](O)(C(=O)CO)C[C@@H]3O[C@H]1C[C@H](N)[C@H](O)[C@H](C)O1 [DOX, doxorubicin]
negatively impaired: ejection fraction (EF %) | fractional shortening (FS %) | isovolumetric relaxation time (IVRT)
